High-throughput results as filed in PubChem.
TDP1 cell noCPT: qHTS for Inhibitors of human tyrosyl-DNA phosphodiesterase 1 (TDP1): qHTS in cells in absence of CPT. Potency, µM (highest dose often 46.2 µM), for inactives: top-dose activity change, negative = growth inhibition, actives largely listed as inhibitors. DT40 Tdp1-/- hTDP1 cells, no CPT, ATP luminescence, 48 h. actives 15% (n = 420,000); note: potency is the fitted concentration of half-maximal effect; % is set by controls: 0 for no effect and ±100 for the full control effect; nearly all actives have a fitted effect of over 55% in size
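Cells were dispensed at 400 per well, compounds added by pin tool, plates incubated ≥48 hr at 37 °C, then CellTiter-Glo added for 30 min at room temperature before luminescence reading. Line: DT40 Tdp1-/- complemented with hTDP1; camptothecin omitted.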
uPA generation: inhibitors of cell surface uPA generation | Potency, µM (doses to about 38.3 µM), without a hit: top-dose activity change, negative = inhibition, usual class: inhibitors | actives 0.31% (n = 330,000) | cell surface uPA generation assay, qHTS | AID 540303; active = well fitted inhibition curve with a large enough effect; inconclusive = small, poorly fitted or top-dose-only effect; inactive = no such curve, though single readings can be large or run the other way; tested in mouse RAW 264.7 cells; note: potency is the fitted concentration of half-maximal effect; % is set by controls: 0 for no effect and ±100 for the full control effect; nearly all actives have a fitted effect of over 55% in size
TDP1 block: blocks human tyrosyl-DNA phosphodiesterase 1; recombinant TDP1, AlphaScreen DNA substrate cleavage; Potency, µM (doses to about 130 µM), for the others: at the top dose activity change, negative = inhibition, most hits filed as inhibitors; actives 0.28% (n = 350,000); note: potency is the fitted concentration of half-maximal effect; % is set by controls: 0 for no effect and ±100 for the full control effect; nearly all actives have a fitted effect of over 40% in size
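Steps: enzyme plus compound, 15 min RT; add biotin/phosphotyrosine-FITC oligonucleotide (15 nM final), react 5 min; add donor/acceptor beads (10 ug/ml final), 10 min; read AlphaScreen. Tdp1 at 1 nM final.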
DT40 TDP1 CPT: growth inhibition of DT40 Tdp1-/-;hTDP1 cells with camptothecin (screen for TDP1 inhibitors) | chicken DT40 Tdp1-/-;hTDP1 cells + 20 nM CPT, ATP luminescence, 48 h | Potency, µM (titrated, usually from 46.2 µM), for the others: at the highest dose activity change, negative = growth inhibition, usual class: inhibitors | actives 12% (n = 420,000) | AID 686979; note: potency is the fitted concentration of half-maximal effect; % is set by controls: 0 for no effect and ±100 for the full control effect; nearly all actives have a fitted effect of over 55% in size
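Chicken DT40 Tdp1-/- cells complemented with human TDP1, 400 cells/well, exposed to compounds plus 20 nM camptothecin for at least 48 h at 37 C; viability read as ATP content by CellTiter-Glo luminescence.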
miR-21 reporter: miR-21 reporter, rising signal; HeLa miR-21 FLuc reporter, luciferase, 48 h; Potency, µM (top dose mostly 38.3 µM), without a hit: at the highest dose reporter change, positive = more light; 340,000 tested, under 10 active; active = well fitted rising curve with a large enough effect; inconclusive = small, poorly fitted or top-dose-only effect; inactive = no such curve, though single readings can be large or run the other way;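 further: % of control where 0% means no effect; miR-21 action dims this reporter so a rising signal means less miR-21 action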
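Luminescence from a firefly luciferase reporter carrying a miR-21 binding site downstream, stably expressed under a CMV promoter in HeLa cells that make miR-21 endogenously, reports miRNA modulation after 48 h compound exposure up to approximately 40uM final.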
Numbers without * were called inactive; ? = inconclusive; . = no result; [ ] = dose if it differs, or a comment. Sampled rows, rich in hits. Any-hit rate of the full collection: about 16%. Unless noted, calls come from the whole dose curve; as a rule, active = well fitted curve in the direction sought with a large enough effect; inconclusive = small, poorly fitted or top-dose-only effect, or another doubt; inactive = no such curve, though single readings can be large; an effect the other way counts as inactive or inconclusive.

smiles	TDP1 cell noCPT	uPA generation	TDP1 block	DT40 TDP1 CPT	miR-21 reporter
CCc1c(O)nc(SCC(=O)Nc2ccccc2OC)n(-c2ccccc2C)c1=O	17.4%	0.1%	6.1%	-0.9%	-0.5%
COc1ccccc1NC(=O)CSc1nc2n[nH]c(C)c2c(=N)n1-c1ccccc1Cl	25.9µM*	.	5.2%	23.1µM*	15.5%
COc1ccc(-n2c(SCC(=O)NCc3ccccc3)nc3n[nH]c(C)c3c2=N)cc1	6.51µM*	.	5.7%	6.51µM*	0.7%
CCc1ccccc1NC(=O)CSc1nnc(-c2ccc(OC)cc2)s1	-20.0%	.	2.2%	8.9%	-14.8%
Cc1cc(-n2c(SCc3ccccc3F)nc3n[nH]c(C)c3c2=N)ccc1Cl	?	10.0%	5.7%	?	-7.6%
CCc1ccccc1NC(=O)CSc1nc2n[nH]c(C)c2c(=N)n1-c1cccc(C)c1	3.66µM*	.	4.7%	7.31µM*	0.0%
COC(=O)c1cn(Cc2ccccc2C)nn1	-13.3%	-2.0%	1.3%	-26.5%	-7.7%
O=C(Cc1csc(-c2ccccc2)n1)NCC(=O)Nc1ccc(F)c(F)c1F	-8.8%	-1.3%	0.5%	-4.4%	.
COc1ccc2c(c1)O[C@H](c1ccc3c(c1)OCO3)[C@@H](OC(=O)NC1CCCC1)C2=O	.	.	4.4%	.	.
Cc1ccc(Cl)cc1-n1c(SCC(=O)NCc2ccccc2)nc2n[nH]c(C)c2c1=N	?	.	0.9%	?	2.7%
CCCCNC(=O)CSc1nc2n[nH]c(C)c2c(=N)n1-c1ccccc1CC	10.3µM*	.	2.8%	14.6µM*	-16.1%
Cc1cccc(-n2c(SCC(=O)N3CCCC3)nc3n[nH]c(C)c3c2=N)c1	?	.	2.6%	?	-20.2%

Next part, starting with the last five of the part before.
smiles	TDP1 cell noCPT	uPA generation	TDP1 block	DT40 TDP1 CPT	miR-21 reporter
O=C(Cc1csc(-c2ccccc2)n1)NCC(=O)Nc1ccc(F)c(F)c1F	-8.8%	-1.3%	0.5%	-4.4%	.
COc1ccc2c(c1)O[C@H](c1ccc3c(c1)OCO3)[C@@H](OC(=O)NC1CCCC1)C2=O	.	.	4.4%	.	.
Cc1ccc(Cl)cc1-n1c(SCC(=O)NCc2ccccc2)nc2n[nH]c(C)c2c1=N	?	.	0.9%	?	2.7%
CCCCNC(=O)CSc1nc2n[nH]c(C)c2c(=N)n1-c1ccccc1CC	10.3µM*	.	2.8%	14.6µM*	-16.1%
Cc1cccc(-n2c(SCC(=O)N3CCCC3)nc3n[nH]c(C)c3c2=N)c1	?	.	2.6%	?	-20.2%
Cc1cccc(-n2c(SCC(=O)Nc3ccccc3Cl)nc3n[nH]c(C)c3c2=N)c1	20.6µM*	.	5.7%	14.6µM*	0.4%
O=C(CSc1ncn[nH]1)c1ccccc1	-21.4%	.	-1.9%	-6.0%	-18.8%
COC(=O)Cc1nc(NC(=O)c2cccs2)sc1C	-0.5%	-2.9%	.	2.5%	-41.7%
S=C(NN=C(c1ccccc1)c1ccccn1)N(Cc1ccccn1)Cc1ccccn1	0.146µM*	-11.9%	.	0.146µM*	.
CC(=NNC(=S)N(Cc1ccccn1)Cc1ccccn1)c1cnccn1	0.82µM*	-5.4%	.	0.581µM*	.
S=C(NN=Cc1ccccn1)N(Cc1ccccn1)Cc1ccccn1	0.92µM*	-8.3%	.	0.651µM*	.
CC(=NNC(=S)N1CC2CCC(CC2)C1)c1cnccn1	-115.6%	-7.4%	.	-112.6%	.
O=C(Cc1ccccc1)N/N=C/c1ccccn1	-15.3%	-4.3%	.	-11.9%	.
Cc1ccccc1NC(=S)N(Cc1ccccn1)Cc1ccccc1Cl	?	-0.7%	3.7%	?	-5.9%
COc1ccc(NC(=O)c2nc(SCc3ccc(F)cc3)ncc2Cl)cc1	?	.	0.0%	-10.8%	0.5%
CCc1ccc(OC(C)C(=O)N2CCC(c3nc4ccccc4s3)CC2)cc1 (stereo not drawn)	16.4µM*	.	-2.6%	18.4µM*	21.9%
COc1ccc(OCC(=O)N2CCC(c3nc4ccccc4s3)CC2)cc1	?	.	3.6%	?	8.7%
O=C(COc1ccc([N+](=O)[O-])cc1)N1CCC(c2nc3ccccc3s2)CC1	9.2µM*	.	4.7%	7.31µM*	26.7%
CCn1c(/C=C/N(C(C)=O)c2ccccc2)[n+](CCCS(=O)(=O)[O-])c2cc(Cl)c(Cl)cc21	21.9%	3.8%	7.2%	8.9%	-3.9%
CCn1c(/C=C/Nc2ccccc2)[n+](CC)c2cc(Cl)c(Cl)cc21	3.26µM*	-4.6%	8.2%	2.59µM*	1.1%
CC(=O)Nc1ccc(NCCc2ccco2)cc1	0.7%	.	.	7.0%	.
O=C(CSc1nc(=O)n2ccccc2n1)NCc1ccc(F)cc1	-0.3%	-3.0%	0.4%	-3.5%	.
CCOc1ccccc1NC(=O)Cn1c(=O)n(CCC(=O)NCc2ccc3c(c2)OCO3)c(=O)c2ccccc21	11.6µM*	.	0.0%	?	-8.0%
O=C(CCCCCn1c(=O)c2sccc2n(CC(=O)Nc2cccc(Cl)c2)c1=O)NCc1ccc2c(c1)OCO2	14.6µM*	.	0.0%	?	2.0%
O=C(CCCn1c(=O)c2ccccc2n(CC(=O)Nc2cccc(Cl)c2)c1=O)NCc1ccc2c(c1)OCO2	14.6µM*	.	7.3%	?	-1.6%
CC(=O)c1c(C)n(CC(=O)NCc2ccc3c(c2)OCO3)c2ccccc12	14.1µM*	-13.2%	4.1%	13µM*	16.1%
O=C(CSc1nnc(-c2cccs2)n1Cc1ccccc1)NCc1ccc2c(c1)OCO2	?	3.1%	7.5%	23.1µM*	1.2%
COc1cc2ccccc2cc1C(=O)Nc1cccc(-c2nc3cc(C)ccc3o2)c1C	-15.1%	.	-5.7%[12.3 µM]	1.2%	-0.2%
O=C1N=c2ccccc2=C1c1sc(=S)n(NC(=O)c2ccccc2)c1O	?	-0.8%	-1.3%	18.4µM*	-3.1%
Cc1nc2sccn2c(=O)c1CCN1CCC(=C(c2ccccc2)c2ccc(F)cc2)CC1	11.9µM*	.	8.2%	13.3µM*	9.2%
CC(=O)Nc1ccc(NC(=O)CSc2nnc(-c3cc4ccccc4o3)n2C)cc1	3.0%	0.3%	.	6.1%	5.6%
COc1ccc(/C=C/C(=O)c2cccs2)c(OC)c1	2.37µM*	.	.	1.06µM*	.
Cc1[nH]c(C)c(C(=O)/C=C/c2ccc([N+](=O)[O-])cc2)c1C	23.1µM*	?	.	16.4µM*	?
COc1cc(C)cc(C(=O)C=Cc2ccccc2)c1O	?	-6.8%	.	?	.
COc1ccc(C=CC(=O)c2ccc([N+](=O)[O-])cc2)cc1	-26.6%	1.6%	.	-6.8%	.
COc1ccc(C(=O)/C=C/Sc2nc3ccccc3o2)cc1	2.31µM*	-10.3%	4.1%	2.59µM*	-19.1%
COc1ccc(C(=O)/C=C/c2ccccc2)c(OC)c1	11.6µM*	?	3.8%	-104.4%	16.1%
O=C(c1ccc(S(=O)(=O)N2CCCCC2)cc1)N1CCN(c2ccccc2F)CC1	-28.2%	-4.3%	-2.6%	-10.9%	-3.5%
Cc1ccc(C)c(NC(=O)CN(C)C(=O)c2ccccc2Cc2ccccc2)c1	?	-1.9%	-7.7%	?	.
CNC(=O)c1cc2cccc(OC)c2oc1=O	10.3%	-7.7%	-2.5%	-7.1%	-7.4%
COCOc1cc(O)c(C(=O)/C=C/c2ccccc2)c(OCOC)c1	18.4µM*	10µM*	.	14.6µM*	.
COCOc1cc(OC)ccc1C(=O)/C=C/c1ccc2c(c1)OCO2	.	.	10.0%	.	.
COc1ccc(/C=C/C(=O)c2cc3cccc(OC)c3oc2=O)cc1	23.1µM*	-9.8%	6.0%	?	-5.5%
COc1ccc(C(=O)/C=C/c2ccc(N(C)C)cc2)c(OC)c1	10.3µM*	-21.2%	1.2%	7.31µM*	-0.1%
COc1ccc(C(=O)O/N=C(\N)c2ccccc2)c(OC)c1	?	3.98µM*	2.6%	?	24.3%
